Like-named read-outs stand apart in the source and are kept apart here.
Key:
[1] = target: T1, CyclinE1/CDK2 (Homo sapiens, UniProt P24864); test: Fluorescence Polarization (FP) competitive binding assay, Cyclin E1/Cdk2; conditions: average of 2-3 independent experiments;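 also: readings taken after two-hour equilibration at room temperature in HEPES buffer with NaCl, DTT, NP-40 and BSA, IC50 fitted from eight-concentration serial dilution series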
T1 construct: purchased Eurofins, discovery 14-475

[2] = target: T2, CyclinA2/CDK2 (Homo sapiens, UniProt P20248); test: Fluorescence Polarization (FP) competitive binding assay, Cyclin A2/Cdk2; conditions: Cyclin A FP IC50, 8 nM Cyclin A2/Cdk2, 2 nM FAM probe; average of 2-3 independent experiments;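 also: plates equilibrated two hours at room temperature before polarization reading, IC50 fitted from eight-concentration compound titration curves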
T2 construct: purchased CRELUX Protein Services

[3] = target: T3, CyclinB1/CDK1 (Homo sapiens, UniProt P14635); test: Fluorescence Polarization (FP) competitive binding assay, Cyclin B1/Cdk1; conditions: read-out: Cyclin B FP IC50; 10 nM Cyclin B1/Cdk1, 2 nM FAM probe; average of 2-3 independent experiments;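 also: fluorescence polarization read after equilibration at room temperature, with IC50 taken from serially diluted dose-response curves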
T3 construct: purchased Eurofins, discovery 14-450

| SMILES | IC50 ([1]; Cyclin E FP IC50, 10 nM Cyclin E1/Cdk2, 2 nM FAM probe) [nM] | IC50 [2] [nM] | IC50 [3] [nM] | IC50 ([1]; 10 nM Cyclin E1/Cdk2, 2 nM FAM probe, read-out: Cyclin E FP IC50) [nM] |
| --- | --- | --- | --- | --- |
| CC(C)C[C@@H]1NC(=O)[C@@H](N(C)C(=O)[C@@H](NC(=O)[C@@H]2C[C@@H](F)CN2C(=O)C2(C(F)(F)F)CC(F)(F)C2)C2CC2)CCCCCCCNC(=O)[C@H](Cc2cc(Cl)ccc2-c2ccc3c(c2)COC32CN(C)C2)N(C)C1=O [Example 395] | 2810 | 60 | 20 |  |
| CC(C)C[C@@H]1NC(=O)[C@@H](N(C)C(=O)[C@@H](NC(=O)[C@@H]2C[C@@H](F)CN2C(=O)C2(C(F)(F)F)CC(F)(F)C2)C2CC2)CCCCCCCNC(=O)[C@H](Cc2cc(Cl)ccc2-c2cnn(C)c2)N(C)C1=O [Example 66] |  |  |  | 450 |

From patent US20240408169A1 (priority 2023, published 2024)
